# Laboratory results taken from PubChem BioAssay AID1259313 (Sanford-Burnham Center for Chemical Genomics, 2017).
# The list shows a part of the results, in another mix than the full data. Calls of active or inactive are those of the source.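 The calls were made as follows: active = melting temperature shift of at least 10% of the positive control shift, at one fixed dose; inactive = the rest.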
# System: Glutamate receptor ionotropic, NMDA 3A (GRIN3A) ligand-binding domain
# Assay: binders of NR3A ligand-binding domain, primary screen, biophysical, differential scanning fluorimetry, uHTS (AID 1259313)
# Details: NR3A LBD differential scanning fluorimetry, at 25 µM, stronger effect = higher value, 0% = protein alone, 100% = glycine-bound protein
row,Compound,Tm shift relative to glycine control
1,Nc1cccc2c([As](=O)(O)O)cccc12,inactive: 1.8%
2,Cc1ccc(NCCc2c([N+](=O)[O-])cc([N+](=O)[O-])cc2[N+](=O)[O-])cc1,inactive: -3.53%
3,COc1cc(C2NCCC3(OCCO3)C2(C)C)cc(OC)c1OC (configuration not stated),inactive: -12.5%
4,CCOP(=O)(Nc1cccc2ccccc12)OCC,inactive: 0.34%
5,COc1cc(C(=O)NCC2(N3CCOCC3)CCCCC2)cc(Cl)c1OC(C)C,inactive: -1.01%
6,O=[As](O)(O)c1cccnc1,inactive: -0.47%
7,CS(=O)(=O)c1ccc(Cl)c(NC(=O)COC(=O)C(O)(c2ccccc2)c2ccccc2)c1,inactive: 2.2%
8,O=C(OC1CN2CCC1CC2)c1ccc(Cl)cc1 (configuration not stated),inactive: 1.33%
9,O=[As](O)(c1cccc(O)c1)c1cccc(O)c1,inactive: -0.93%
10,Cc1cccc(OCC(=O)OC2CN3CCC2CC3)c1 (configuration not stated),inactive: -1.14%
11,COc1ccccc1CNC(=O)COC(=O)C(O)(c1ccccc1)c1ccccc1,inactive: 0.17%
12,CC1(CBr)Cn2c(nc3ccccc3c2=O)S1 (configuration not stated),inactive: 5.11%
13,CC(C)/C=N\N=C(\N)N[N+](=O)[O-],inactive: 0.79%
14,CN(CCCl)Cc1cc(Cl)c(NC2=NCCN2)c(Cl)c1,inactive: -0.95%
15,CCOP(=O)(Nc1ccc(C)cn1)OCC,inactive: 6.11%
16,O=P1(Nc2ccccn2)COc2ccccc2OC1,inactive: 2.47%

row,Compound,Tm shift relative to glycine control
1,CCC1=CC2Cc3nc4ccc(Cl)cc4c(N)c3C(C1)C2 (configuration not stated),inactive: -1.59%
2,CCOP(=O)(NC(=NC(C)c1ccccc1)NC(C)c1ccccc1)OCC (configuration not stated),inactive: -0.18%
3,Clc1n[nH]nc1-c1nn[nH][15n]1,inactive: 3.96%
4,CC(C)(C)C(=O)NC(Sc1ncccn1)C(Cl)(Cl)Cl (configuration not stated),inactive: 0.48%
5,O=P1(Nc2ncccn2)COc2ccccc2OC1,inactive: 2.22%
6,O=P1(Nc2ccc(Br)cn2)COc2ccccc2OC1,inactive: 1.59%
7,NS(=O)(=O)c1cccc(NC(=O)COC(=O)C(O)(c2ccccc2)c2ccccc2)c1,inactive: -3.45%
8,O=[As](O)(c1cccs1)c1cccs1,inactive: 1.8%
9,Cc1ccc(OCC(=O)OC2CN3CCC2CC3)cc1 (configuration not stated),inactive: -0.09%
10,Nc1cccc([As](=O)(O)c2ccccc2)c1,inactive: 0.32%
11,Cc1nn(-c2ccccc2)c2c1P(=O)(N1CCOCC1)N(C)C(c1ccccc1)=N2 (configuration not stated),inactive: -0.09%
12,CC1CCC(C(C)C)C(OP(=O)(Nc2ccccn2)c2ccccc2)C1 (configuration not stated),inactive: -2.86%
13,Cc1ccc(C(=O)OC2CN3CCC2CC3)cc1 (configuration not stated),inactive: -6.62%
14,O=C(/C=C/c1ccccc1)OC1CN2CCC1CC2 (configuration not stated),inactive: -0.64%
15,CCCC1OP(=O)(Nc2ccccc2)OCC1CC (configuration not stated),inactive: 0.6%
16,CN(C)C1(CNC(=O)c2ccc(S(C)(=O)=O)cc2)CCCCC1,inactive: -0.93%
